Experimental data reported in patent EP4843986A1, “ANGIOTENSIN II RECEPTOR ANTAGONIST AND USE THEREOF IN TREATMENT OF PERIPHERALLY-INDUCED NEUROPATHIC PAIN” (dated 2026).

How the values were obtained:
[1] = test system: SD rat model of chronic constriction injury of the sciatic nerve; assay: Rat chronic constriction injury (CCI) of the sciatic nerve model, mechanical allodynia (Von Frey); details: 200 mg/kg intragastric; at either 2 h or 4 h after administration; vs vehicle control
Protocol: SD rats were fully anesthetized via intraperitoneal injection of sodium pentobarbital (50 mg/kg). The lumbar surgical region of each animal was shaved, and the skin was disinfected three times with iodophor and 70% ethanol. Surgery was initiated once the skin had dried, and aseptic operations were adopted throughout the surgical procedure. The left sciatic nerve was isolated, and four loose ligatures were tied approximately 7 mm upstream proximal to the nerve bifurcation with 4-0 chromic catgut sutures, spaced about 1 mm apart. The wound was sutured to complete the establishment of the rat CCI model.
(§1) Starting on day 11 post-surgery, animals were acclimated to the experimental environment for 15 minutes per day over 3 consecutive days.
(§2) On Day 13 post-surgery, the baseline mechanical allodynia threshold of the rats was measured. […]
(§3) On Day 14 post-surgery, mechanical allodynia tests were performed using Von Frey filaments at 0 hour before administration, as well as at 2, 4, and 6 hours after administration. Mechanical allodynia was quantified as the paw withdrawal threshold (PWT) in rat behavioral tests and was calculated using the formula below: 50% response threshold(g) = (10^((Xf+kδ)))/10,000 [formula] […]
(§4) Data were collected using Excel software. Data were analyzed using Prism 6.01 (GraphPad Software, Inc.) (two-way ANOVA followed by Bonferroni multiple comparison test).

[2] = test system: SD rat spinal nerve ligation model; assay: Rat spinal nerve ligation (SNL) model, mechanical allodynia (Von Frey); details: 200 mg/kg intragastric; at 2 h after administration; Day 14 post-surgery; vs vehicle control
Protocol: SD rats were fully anesthetized via intraperitoneal injection of sodium pentobarbital (50 mg/kg). The lumbar surgical region of each animal was shaved, and the skin was disinfected three times with iodophor and 70% ethanol. Surgery was initiated once the skin had dried, and aseptic operations were adopted throughout the surgical procedure. The left L5 and L6 spinal nerves were isolated and tightly ligated with 6-0 silk sutures. The wound was sutured to complete the establishment of the rat SNL model.
as §1, §2, §3, §4

[3] = test system: mouse spared nerve injury (SNI) model; assay: Mouse spared nerve injury (SNI) model, paw withdrawal threshold (Electronic von Frey); details: 50 mg/kg intragastric; at both 2 h and 4 h after administration; vs vehicle control
Text: • 1) Mice were fully anesthetized via isoflurane inhalation and fixed in a prone position on an operating table to fully expose the lateral gluteal region. Hair on the left hind limb was shaved, and the skin was disinfected via an alcohol wipe. Aseptic operations were adopted throughout the surgical procedure. For the SNI surgery group: An incision was made parallel to the sciatic nerve along the femur to expose the sciatic nerve trunk until tibial nerve, common peroneal nerve, and sural nerve are visible. The tibial nerve and common peroneal nerve were tightly ligated with absorbable surgical suture (8-0). […] The remaining mice were randomly divided into 5 groups (SNI model groups) according to their body weights and PWT values: vehicle control (sterile water for injection), Gabapentin 50 mg/kg, A1 50 mg/kg, A1 100 mg/kg, and A1 200 mg/kg, with 12 mice per group and an intragastric administration volume of 10 mL/kg. • 4) On day 12 post-surgery, paw withdrawal thresholds were measured using an Electronic von Frey Anesthesiometer at 0 h before administration, 2 h after administration, and 4 h after administration. […] The reading recorded by the instrument at this moment was defined as the mechanical pain reaction threshold in grams. […]
The experimental results were expressed as mean ± standard deviation. Data of each group were statistically analyzed using GraphPad Prism 8.0 software package. […]

[4] = test system: rat diabetic foot pain model; assay: Rat diabetic foot pain model induced by high-fat and high-sugar diet combined with STZ (Von Frey, 50% PWT); details: 100 mg/kg oral gavage; at 2, 4, and 6 hours after administration; vs vehicle control
Protocol: Rats were acclimated for one week. After being fed a high-fat and high-sugar diet for 4 weeks, plantar pain testing was performed once using Von Frey filaments in rats, and rats with a value higher than 10 g were screened out. The rats were fasted for 16 hours with free access to water, followed by a single intraperitoneal injection of STZ at 40 mg/kg (for rats weighing 220-250 g) or 50 mg/kg (for rats weighing 180-220 g). After 72 hours, random blood glucose was detected. Blood glucose ≥16.7 mmol/L indicated successful establishment of diabetic model. Rats as successfully established diabetes models were subjected to plantar pain testing training using Von Frey filaments once a week. After 4 or 5 weeks, rats whose 50% PWT fell within the range of 1-6 g were selected as diabetic foot pain model animals. The rats were randomly divided into 7 groups based on the pre-dosing pain threshold: vehicle control (ddH2O), gabapentin 100 mg/kg, A1 (12.5, 25, 50, 100, and 200 mg/kg), with 10 rats per group. The administration volume was 10 mL/kg, and all test articles were given via oral gavage. Pain testing was performed using Von Frey filaments at 2, 4, and 6 hours after dosing, and pharmacodynamic efficacy was evaluated based on the change in 50% PWT of the rats. […]
All measurement data were expressed as mean + SEM. […]

| SMILES | mechanical allodynia induced by sciatic nerve constriction (PWT) [1] | spinal nerve ligation-induced mechanical allodynia (PWT) [2] | sciatic nerve injury-induced mechanical allodynia (PWT) [3] | diabetes-induced peripheral neuralgia (50% PWT) [4] |
| --- | --- | --- | --- | --- |
| COc1ccc2c(c1OCc1ccccc1)C[C@@H](C(=O)O)N(C(=O)C(c1ccccc1)c1ccccc1)C2 | failed to inhibit | significantly inhibited |  |  |
| NCC1(CC(=O)O)CCCCC1 |  |  | inhibited | significantly alleviated |
